## Yeast mating assay B: variants of the scFv Ab-14

Source: Li et al. 2023 (doi:10.1038/s41467-023-39022-2), MIT Lincoln Laboratory and A-Alpha Bio; data file from the FLAb repository.

Binding partner: SARS-CoV-2 spike HR2 peptide, sequence PDVDLGDISGINAS.

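The parent was found by panning a naive human phage display library on the peptide. The variants were designed computationally from a first round of random CDR variants and then made and measured. Their group label is 14H_GP_HC (GP: Gaussian process model; HC: hill climbing; a sequence that several methods proposed may carry one label only). In AlphaSeq, yeast of one mating type display the scFv and yeast of the other type display the target. Mating (16 h, 30 °C) was followed by selection of diploids and sequencing of their barcodes. A regression on co-assayed BCL2-family reference pairs converts the normalised counts of each replicate to an apparent Kd. There are six technical replicates.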

Parent: Ab-14, a human scFv built as VH, the linker GGGGSGGGGSGGGGS, VL. Only the CDRs of the heavy chain vary.
VH: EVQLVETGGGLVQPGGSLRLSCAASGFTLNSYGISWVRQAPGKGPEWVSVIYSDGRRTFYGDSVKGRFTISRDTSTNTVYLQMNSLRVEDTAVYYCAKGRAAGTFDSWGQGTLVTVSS
VL: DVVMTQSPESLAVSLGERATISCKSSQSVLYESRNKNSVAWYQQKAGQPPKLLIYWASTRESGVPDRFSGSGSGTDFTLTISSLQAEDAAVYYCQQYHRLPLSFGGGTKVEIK

Each variant is given by its three heavy chain CDRs, as the data file delimits them; those of the parent are GFTLNSYGIS, VIYSDGRRTFYGDSVK, GRAAGTFDS.
Numbers give log10(Kd / nM), so 0 is 1 nM and 3 is 1 µM. Smaller is tighter.
The mean shown is taken over the replicates in which the pair was detected.
An entry "nd" has no value in the source: the pair was not observed among the diploids in that replicate. This suggests poor binding but is not conclusive.
Values of this round are not directly comparable with the first-round values of the same sequences.

| # | CDR-H1 | CDR-H2 | CDR-H3 | replicates, log10 nM | mean, log10 nM | empty controls |
|---|---|---|---|---|---|---|
| 1 | GFWLNEYGIS | VIYSDGRRTFYHDSVK | GRAAVTFDS | nd / nd / nd / nd / nd / nd | nd | 0/18 |
| 2 | GFQLNEYGIS | VIYSDGRRTFYGDAVK | GRAAGTFDI | -0.17 / -0.77 / nd / -0.31 / -0.16 / 0.55 | -0.17 | 0/18 |
| 3 | GFTLNSYGIS | VIYSDGRRTFYSDSVK | GKEAGTFFS | nd / 1.79 / nd / nd / nd / nd | 1.79 | 0/18 |
| 4 | GFTLNSYGIS | VIYSDGRRTFYDDSVK | GAAAGTFDS | 1.93 / 1.19 / 1.73 / 1.77 / 1.27 / 1.17 | 1.51 | 0/18 |
| 5 | GFTLNEYGIS | VIYSDGRRTFYADSVK | GRYAGTFDS | nd / nd / -0.31 / -0.59 / -0.37 / -0.88 | -0.54 | 0/18 |
| 6 | GFTLNSYGIS | VIYSDGRRTFYDDNVK | GQTAGTFDT | 1.23 / 0.57 / 0.59 / 0.88 / 0.66 / 0.81 | 0.79 | 0/18 |
| 7 | GFSLNEYGIS | VIYSDGRRTFYEDSVK | GRAGGTFDS | 1.20 / 1.35 / 1.14 / 1.56 / 1.48 / 1.32 | 1.34 | 1/18 (2.91) |
| 8 | GFTLDSYGIS | VIYSDGKRTFYGDSVK | GRAAGTFDR | nd / nd / nd / 1.48 / 1.81 / nd | 1.64 | 0/18 |
| 9 | GFSLNDYGIS | VIYSDGRRTFYGDSVK | GRAAATFDS | nd / nd / nd / nd / nd / nd | nd | 0/18 |
| 10 | GFTLNEYGIS | VIYSDGRRTFYGDSVK | GRTAGTFIT | nd / nd / nd / nd / nd / nd | nd | 0/18 |
| 11 | GFRLNEYGIS | VIYSDGRRTFYGDSVK | GKAAGTFDQ | 0.74 / 0.74 / 0.85 / 1.07 / 0.67 / 0.95 | 0.84 | 0/18 |
| 12 | GNTLNEYGIS | VIYSDGRRTFYTDSVK | GRVAGTFDS | 0.09 / 0.16 / 0.21 / 0.10 / 0.02 / -0.09 | 0.08 | 0/18 |
| 13 | GFTLNDYGIS | VIYSDGRRTFYSDSVK | GRAAGFFDS | 0.88 / 0.74 / 0.47 / 0.48 / 0.31 / 0.77 | 0.61 | 0/18 |
| 14 | GFTLNGYGIS | VIYSDGRRTFYSDSVK | GEAAGTFDS | 0.94 / 1.19 / 1.11 / 0.52 / 0.83 / 1.54 | 1.02 | 1/18 (2.87) |
| 15 | GFTLDSYGIS | VIYSDGRRTFYGDSVK | GHAAGTFDV | 1.95 / 0.77 / 0.80 / -0.02 / -0.21 / nd | 0.66 | 0/18 |
| 16 | GFTLNEYGIS | VIYSDGRRTFYTDSVK | GREAGTFDI | 0.32 / 0.63 / 1.75 / 0.28 / 0.79 / 1.40 | 0.86 | 0/18 |
| 17 | GFTLNSYGIS | VIYSDGRRTFYSDSVK | GTAGGTFDV | nd / 2.02 / 1.27 / 0.98 / 2.11 / 1.49 | 1.57 | 0/18 |
| 18 | GFTLKSYGIS | VIYSDGRRTFYSDSVK | GKLAGTFDS | nd / nd / 2.76 / 1.51 / nd / 1.86 | 2.04 | 0/18 |
| 19 | GFHLNDYGIS | VIYSDGRRTFYQDSVK | GRLAGTFDS | 0.03 / 0.32 / -0.06 / 0.79 / 0.24 / 0.62 | 0.32 | 0/18 |
| 20 | GFTLDSYGIS | VIYSDGRRTFYGDSVK | GRQAGTFES | nd / 2.17 / 2.52 / 3.00 / 1.59 / 2.22 | 2.30 | 1/18 (3.67) |
| 21 | GFKLNSYGIS | VIYSDGRRTFYKDSVK | GQLAGTFDS | nd / nd / nd / 1.07 / 1.56 / nd | 1.31 | 0/18 |
| 22 | GFTLNDYGIS | VIYSDGRRTFYSDSVK | GRAAVTFDS | nd / nd / nd / 1.82 / nd / nd | 1.82 | 1/18 (2.10) |
| 23 | GFVLNDYGIS | VIYSDGRRTFYIDSVK | GRAAGTFDE | nd / 1.65 / nd / nd / 1.58 / nd | 1.62 | 0/18 |
| 24 | GFTLNSYGIS | VIYSDGRRTFYIDSVK | GRSAGTFDS | nd / 3.29 / nd / 2.03 / nd / nd | 2.66 | 0/18 |
| 25 | GFSLNSYGIS | VIYSDGRRTFYDDSVK | GMLAGTFDS | 0.34 / 0.36 / -0.53 / 0.26 / 0.70 / -0.33 | 0.13 | 0/18 |
| 26 | GFTLNEYGIS | VIYSDGRRTFYTDRVK | GEAAGTFDS | 1.25 / 0.44 / 1.46 / 0.57 / 0.85 / 0.96 | 0.92 | 0/18 |
| 27 | GFTLNSYGIS | VIYADGRRTFYGDQVK | GRAAGTFKS | nd / nd / nd / nd / nd / nd | nd | 0/18 |
| 28 | GFTLNSYGIS | VIYSDGRRTFYDDSVK | GLTAGTFDS | 0.40 / 0.20 / -0.12 / 0.13 / 0.08 / 0.27 | 0.16 | 0/18 |
| 29 | GFTLNSYGIS | VIYSDGRRTFYGDSVK | GRAAGTFLQ | nd / nd / nd / nd / nd / nd | nd | 0/18 |
| 30 | GFELNDYGIS | VIYSDGRRTQYMDSVK | GRAAGTFDS | nd / nd / nd / nd / nd / nd | nd | 0/18 |
| 31 | GFTLNSYGIS | VIYSDGRRTFYTDSVK | GFAAGTFDL | nd / nd / 2.22 / nd / 2.47 / 1.20 | 1.96 | 0/18 |
| 32 | GFTLNEYGIS | VIYSDGRRTFYDDSVK | GRQAGTFDS | 0.91 / 0.18 / -0.24 / -0.06 / 0.12 / 0.28 | 0.20 | 0/18 |
| 33 | GFTLESYGIS | VIYSDGRRTFYGDSVK | GRAAGTFTV | nd / nd / nd / nd / nd / nd | nd | 0/18 |
| 34 | GFTLDSYGIS | VIYSDGRRTFYGDSVK | GRAAGTFSV | nd / 1.20 / nd / nd / nd / nd | 1.20 | 0/18 |

The 3 strongest on average among those seen in every replicate, once more:

| CDR-H1 | CDR-H2 | CDR-H3 | replicates, log10 nM | mean, log10 nM | empty controls |
|---|---|---|---|---|---|
| GNTLNEYGIS | VIYSDGRRTFYTDSVK | GRVAGTFDS | 0.09 / 0.16 / 0.21 / 0.10 / 0.02 / -0.09 | 0.08 | 0/18 |
| GFSLNSYGIS | VIYSDGRRTFYDDSVK | GMLAGTFDS | 0.34 / 0.36 / -0.53 / 0.26 / 0.70 / -0.33 | 0.13 | 0/18 |
| GFTLNSYGIS | VIYSDGRRTFYDDSVK | GLTAGTFDS | 0.40 / 0.20 / -0.12 / 0.13 / 0.08 / 0.27 | 0.16 | 0/18 |

The authors' rule: three or more of the six replicates give a measured affinity, fewer mean a poor binder.
Of ten entries with the parent sequence, four were seen in most replicates (averages 0.34 to 2.37), three in one and three in none, so single entries are noisy.
Three control strains display no target. For all heavy chain designs, 1% of the pairings with them gave a signal, with a median of 2.08 and one signal in twenty below 0.84, so weak values seen in few replicates may be background. For each scFv, signals with the empty controls are counted beside the result, with their mean in brackets.